Experimental data: patent US20220023289A1, “Application Of Pyrroloquinoline Quinone In Preparation Of Medicament Used For Preventing And Treating Acute Altitude Sickness And Acute Altitude Hypoxia Injury” (priority 2018, published 2022)

Tested on: rats exposed to acute altitude hypoxia
Assay: Renal function in rats exposed to acute altitude hypoxia
Assay type: in vivo, Wistar rat
Conditions: 0.11 g/kg

`CC(=O)Nc1nnc(S(N)(=O)=O)s1` [Acetazolamide, reference compound] gave a Serum urea nitrogen (female rats) of 8.02 ± 1.05 mmol/L and a Serum urea nitrogen (male rats) of 7.99 ± 1.03 mmol/L.
